# Source: PubChem BioAssay (Broad Institute)
# PDI turbidity: inhibitors of human PDI, primary screen, biochemical, turbidity, single point, plate reader. actives 0.052% (n = 350,000). inhibition, % at 10 µM. Protein disulfide-isomerase (Homo sapiens), P07237. PDI insulin aggregation turbidity, A650, 90 min;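 active means mean inhibition across replicates of 30% or more, whatever share of single replicates reach that level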
# Yeast UUG start: modulators of start codon recognition fidelity in yeast; AID 602363; activity score, % at 18.7 µM; S. cerevisiae UUG-firefly luciferase reporter, luminescence/redox ratio; actives 0.13% (n = 350,000);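 active = replicate mean at a twofold rise or more, about +100% in these data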;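 note: firefly luciferase made from a UUG start codon reports start codon fidelity; reporter light over untreated wells divided by growth signal over untreated wells; some hits fall short of that in this replicate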
# FGF22 binding-1: binders of human FGF22 protein, primary screen, FGF22 synaptogenesis inhibitor project, biophysical, thermal shift, single point. Fibroblast growth factor 22 (Homo sapiens), Q9HCT0. recombinant FGF22 thermal shift, SYPRO orange fluorescence; percent of sucrose octasulfate shift, DMSO zero. activity (Tm shift, normalised), % at 9.99 µM. actives 1.5% (n = 340,000). AID 651658, 2012;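 active means mean Tm shift, scaled 0 neutral to 100 positive control, at about 1.3% or above, every replicate too, limit read from the data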
# ARNT TACC3 PPI: disruptors of ARNT/TACC3 protein interaction, primary screen, biochemical, AlphaScreen, single concentration. inhibition, % at 9.99 µM. Transforming acidic coiled-coil-containing protein 3 (Homo sapiens), Q9Y6A5. AlphaScreen His-ARNT PAS-B/GST-TACC3 binding, luminescence; TACC3 fragment carries E629A point mutation. actives 0.66% (n = 390,000);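 active means mean inhibition of replicates at least 50% and at least half of replicates each reaching 50%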;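 further: 0% = complete ARNT plus TACC3 wells and 100% = ARNT alone without TACC3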
# ERp5 block: inhibitors of ERp5-driven insulin aggregation, primary screen, biochemical, turbidity, absorbance 650 nm, single point; 90 min; inhibition, % at 9.99 µM; AID 651711, 2012; actives 0.05% (n = 350,000); Protein disulfide-isomerase A6 (Homo sapiens), Q15084;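 active means mean replicate inhibition above about 25%, with every replicate also reaching it, limit read from the data, passing the limit was not always enough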
# PglD DTNB: C. jejuni PglD acetyltransferase inhibitors, primary screen, biochemical, DTNB colorimetric, single point. UDP-N-acetylbacillosamine N-acetyltransferase PglD (Campylobacter jejuni). purified PglD enzyme, DTNB colorimetric CoA detection. inhibition, % at 12.5 µM. AID 602405, 2012. actives 0.098% (n = 360,000); in the data active means inhibition above about 16%, passing the limit was not always enough
# FGF22 binding-2: binders of human FGF22 protein, dose response, FGF22 synaptogenesis inhibitor project, biophysical, thermal shift, cherry-pick retest; shares compounds with FGF22 binding-1; recombinant FGF22 thermal shift, SYPRO orange fluorescence; thermal shift activity, °C (ΔTm) at 38 µM; actives 2% (n = 1,000); AID 720646, 2013;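 active means fitted rise in melting shift crosses a set limit at or below the top valid dose tested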
# FGF22 TSA DP: binders of human FGF22 protein, dose response, FGF22 synaptogenesis inhibitor project, biophysical, thermal shift, dry powder | shares compounds with FGF22 binding-1 | Thermal shift assay, SYPRO orange, melting temperature shift | 50 tested, under 10 active | Tm shift (activity), % at 38 µM | AID 743017, 2013;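 active means compounds whose fitted dose curve of melting temperature shift rises past a set threshold within the tested doses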
# SYPRO no-protein: compound-only thermal shift signal without protein, dose response, artefact control for FGF22 binder project, biochemical, cherry-picked samples, RT-PCR instrument; shares compounds with FGF22 binding-1; compound-only SYPRO orange thermal shift counter-screen, no protein; AC50, µM (highest dose often 38 µM); actives 2% (n = 1,000); AID 743019, 2013;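 active means rising signal whose fitted curve reaches the 0.54 level within the top valid dose, showing a melting point, actives reach about 13 µM in these data; inactive means the rest, including activity in the opposite direction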; further: value is where the raw curve crosses a fixed level and not half-maximal
# * = called active by the depositor; i = inactive; x = not tested or not shown. In the library only some 1.9% were active in any assay of this set; here they are far more common.
SMILES,PDI turbidity,Yeast UUG start,FGF22 binding-1,ARNT TACC3 PPI,ERp5 block,PglD DTNB,FGF22 binding-2,SYPRO no-protein,others
CC(C)Oc1ccc(F)cc1-c1cc(C(=O)NCc2cccs2)[nH]n1,0,-13,1.6*,x,-3,-4,-0.075,i,
O=C(CC(F)(F)F)N1C[C@@H]2[C@H](c3ccccc31)[C@H](CO)N2C(=O)CN1CCOCC1,x,-4,-1,-8,-12,-4,x,x,
COc1cc(NS(=O)(=O)c2ccc(NS(=O)(=O)c3ccc(NC(C)=O)cc3)cc2)nc(OC)n1,-4,-4,1.4*,1,1,4,0.12,i,
COc1ccc(S(=O)(=O)Nc2ccc(NC(C)=O)cc2)cc1Cl,-6,x,1.7*,-5,2,x,-0.005,i,
COc1ccc(OC)c(NS(=O)(=O)c2ccc(NC(C)=O)cc2)c1,5,-14,x,1,x,-1,x,x,
COc1ccc(S(=O)(=O)Nc2ccc(NC(C)=O)cc2)cc1OC,0,-31,x,4,x,12,x,x,
COc1ccc(C)cc1NS(=O)(=O)c1ccc(NS(=O)(=O)c2ccc(NC(C)=O)cc2)cc1,-5,18,2.9*,-4,-5,-2,-0.008,i,FGF22 TSA DP=0
Cc1noc(C)c1NC(=O)Nc1ccc2c(c1)C(=O)N([C@H](C)CO)C[C@@H](C)[C@H](CN(C)C(=O)Nc1cccc3ccccc13)OCCCC[C@H](C)O2,x,x,0,x,4,x,x,x,
COCC(=O)Nc1ccc2c(c1)C(=O)N(C)[C@H]1CC[C@H](CC(=O)NCc3ccccc3Cl)O[C@@H]1CO2,x,25,0,10,x,-1,x,x,
C[C@@H]1CN([C@@H](C)CO)C(=O)c2cc(C3=CCCC3)cnc2O[C@H]1CN(C)S(=O)(=O)c1cn(C)cn1,x,-7,0,-1,-1,2,x,x,
CCn1c2ccccc2c2cc(/C=N/NC(=O)c3ccncc3)ccc21,1,-11,1.5*,3,-3,3,0.13,i,
CCn1c2ccccc2c2cc(/C=N/NC(=O)c3ccc(O)cc3)ccc21,-3,x,1,1,-1,x,x,x,

# The last 3 records of the part above open the next one.
SMILES,PDI turbidity,Yeast UUG start,FGF22 binding-1,ARNT TACC3 PPI,ERp5 block,PglD DTNB,FGF22 binding-2,SYPRO no-protein,others
C[C@@H]1CN([C@@H](C)CO)C(=O)c2cc(C3=CCCC3)cnc2O[C@H]1CN(C)S(=O)(=O)c1cn(C)cn1,x,-7,0,-1,-1,2,x,x,
CCn1c2ccccc2c2cc(/C=N/NC(=O)c3ccncc3)ccc21,1,-11,1.5*,3,-3,3,0.13,i,
CCn1c2ccccc2c2cc(/C=N/NC(=O)c3ccc(O)cc3)ccc21,-3,x,1,1,-1,x,x,x,
COc1ccc2c3c(n(C)c2c1)[C@@H](CO)N(C(=O)CN(C)C)CC31CN(C(=O)NC(C)C)C1,x,x,0,x,x,x,x,x,
CC(OC(=O)CNC(=O)c1ccccc1)C(=O)Nc1ccc(S(=O)(=O)N2CCOCC2)cc1 (centres undefined),7,-13,0,0,-6,1,x,x,
Cc1ccccc1C(=O)NCC(=O)OC(C)C(=O)Nc1cccc(S(=O)(=O)N2CCOCC2)c1 (centres undefined),5,-13,1.5*,x,0,6,0.088,i,
CO[C@@H]1CN(C)C(=O)c2cc(C#N)ccc2OCC[C@@H]2CC[C@@H](OC)[C@@H](CN(C)C(=O)[C@H]1C)O2,x,x,0,-8,3,0,x,x,
O=C(CN1C(=O)NC2(CCOc3ccccc32)C1=O)Nc1ccc(Br)cc1F (centres undefined),2,-5,1.7*,2,-4,-2,-0.34,i,
CN(CC(=O)Nc1ccccc1Cl)C(=O)COC(=O)c1nc(Cl)ccc1Cl,-12,x,1.6*,0,10,x,0.041,i,
